Protein sequences, listed by entry. Tags and fused reporters are not part of them.
UniProt P41146, whole entry: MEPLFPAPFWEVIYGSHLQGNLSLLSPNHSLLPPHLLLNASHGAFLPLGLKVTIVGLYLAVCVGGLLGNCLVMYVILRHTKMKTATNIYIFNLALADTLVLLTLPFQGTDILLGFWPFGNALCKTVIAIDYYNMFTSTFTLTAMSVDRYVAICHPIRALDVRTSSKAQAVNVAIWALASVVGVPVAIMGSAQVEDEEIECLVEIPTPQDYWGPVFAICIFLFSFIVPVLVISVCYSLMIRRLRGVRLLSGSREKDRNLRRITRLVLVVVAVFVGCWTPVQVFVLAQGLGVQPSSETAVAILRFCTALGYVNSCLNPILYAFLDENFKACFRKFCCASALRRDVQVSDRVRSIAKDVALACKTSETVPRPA
UniProt P41145, whole entry: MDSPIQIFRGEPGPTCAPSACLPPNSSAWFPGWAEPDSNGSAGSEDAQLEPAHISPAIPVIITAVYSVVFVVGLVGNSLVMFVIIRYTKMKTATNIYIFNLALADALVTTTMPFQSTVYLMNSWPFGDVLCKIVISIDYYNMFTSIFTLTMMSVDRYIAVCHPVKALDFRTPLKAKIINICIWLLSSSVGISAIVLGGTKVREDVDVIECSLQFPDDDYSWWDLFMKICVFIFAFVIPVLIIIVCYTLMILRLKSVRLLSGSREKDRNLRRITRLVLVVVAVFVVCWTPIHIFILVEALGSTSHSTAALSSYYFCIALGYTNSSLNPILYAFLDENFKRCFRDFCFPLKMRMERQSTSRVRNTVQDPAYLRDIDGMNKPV
UniProt P33535, whole entry: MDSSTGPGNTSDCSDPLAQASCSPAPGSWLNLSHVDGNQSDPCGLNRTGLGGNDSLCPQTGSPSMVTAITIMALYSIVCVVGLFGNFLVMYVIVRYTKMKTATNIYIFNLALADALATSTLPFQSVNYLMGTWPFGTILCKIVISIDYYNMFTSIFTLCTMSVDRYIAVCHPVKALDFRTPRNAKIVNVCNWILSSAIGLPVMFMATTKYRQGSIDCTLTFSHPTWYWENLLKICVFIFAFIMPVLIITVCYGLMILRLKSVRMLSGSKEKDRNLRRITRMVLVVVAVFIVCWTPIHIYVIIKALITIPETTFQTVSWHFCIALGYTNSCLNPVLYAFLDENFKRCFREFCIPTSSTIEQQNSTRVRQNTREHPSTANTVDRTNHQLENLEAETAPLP
UniProt P33533, whole entry: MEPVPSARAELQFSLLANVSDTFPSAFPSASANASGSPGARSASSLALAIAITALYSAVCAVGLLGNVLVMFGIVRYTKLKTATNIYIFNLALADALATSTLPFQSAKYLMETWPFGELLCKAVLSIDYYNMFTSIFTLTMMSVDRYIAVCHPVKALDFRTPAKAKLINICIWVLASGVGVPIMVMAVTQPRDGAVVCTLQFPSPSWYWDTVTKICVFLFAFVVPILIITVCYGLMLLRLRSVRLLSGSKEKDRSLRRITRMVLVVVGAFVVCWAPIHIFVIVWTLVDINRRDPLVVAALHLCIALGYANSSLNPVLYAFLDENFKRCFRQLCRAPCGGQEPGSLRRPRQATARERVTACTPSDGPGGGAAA

In ChEMBL document CHEMBL3580663, “C7β-methyl analogues of the orvinols: the discovery of kappa opioid antagonists with nociceptin/orphanin FQ peptide (NOP) receptor partial agonism and low, or zero, efficacy at mu opioid receptors” (2015):

Legend:
[1] = molecular target: Nociceptin receptor (Homo sapiens) (UniProt P41146); experiment: Agonist activity at human NOP receptor expressed in HEK293 cell membranes assessed as stimulation of [35S]GTPgammaS binding at 10 uM relative to nociceptin
[2] = molecular target: Kappa-type opioid receptor (Homo sapiens) (UniProt P41145); experiment: Agonist activity at human kappa opioid receptor expressed in CHO cell membranes assessed as stimulation of [35S]GTPgammaS binding at 10 uM relative to U69,593
[3] = molecular target: Mu-type opioid receptor (Rattus norvegicus) (UniProt P33535); experiment: Agonist activity at rat mu opioid receptor expressed in rat C6 cell membranes assessed as stimulation of [35S]GTPgammaS binding at 10 uM relative to DAMGO
[4] = molecular target: Kappa-type opioid receptor (Homo sapiens) (UniProt P41145); experiment: Antagonist activity against human kappa opioid receptor expressed in CHO cell membranes assessed as inhibition of U69,593-induced [35S]GTPgammaS binding
[5] = molecular target: Delta-type opioid receptor (Rattus norvegicus) (UniProt P33533); experiment: Agonist activity at rat delta opioid receptor expressed in rat C6 cell membranes assessed as stimulation of [35S]GTPgammaS binding at 10 uM relative to DPDPE

## CO[C@]12C=C[C@@]3(C[C@]1(C)[C@@H](O)c1cccc(C)c1)[C@H]1Cc4ccc(O)c5c4[C@@]3(CCN1CC1CC1)[C@H]2O5
[1]
  %max: 11%
[2]
  %max: 92%

## CO[C@]12CC[C@@]3(C[C@]1(C)[C@H](O)c1cccs1)[C@H]1Cc4ccc(O)c5c4[C@@]3(CCN1CC1CC1)[C@H]2O5
[1]
  %max: 6%
[2]
  %max: 20%

## CO[C@]12CC[C@@]3(C[C@]1(C)[C@H](O)c1ccsc1)[C@H]1Cc4ccc(O)c5c4[C@@]3(CCN1CC1CC1)[C@H]2O5
[3]
  %max: 10%
[1]
  %max: 2%
[2]
  %max: 28%

## CO[C@]12CC[C@@]3(C[C@]1(C)[C@H](O)c1ccc(C)cc1)[C@H]1Cc4ccc(O)c5c4[C@@]3(CCN1CC1CC1)[C@H]2O5
[4]
  Ke: 0.1 nM
[1]
  %max: 4%
[2]
  %max: -5%

## CO[C@]12C=C[C@@]3(C[C@]1(C)[C@@H](O)c1ccc(F)cc1)[C@H]1Cc4ccc(O)c5c4[C@@]3(CCN1CC1CC1)[C@H]2O5
[3]
  %max: 55%
[1]
  %max: 7%
[2]
  %max: 45%

## CO[C@]12CC[C@@]3(C[C@]1(C)[C@@H](O)c1ccccc1)[C@H]1Cc4ccc(O)c5c4[C@@]3(CCN1CC1CC1)[C@H]2O5
[3]
  %max: 33%
[1]
  %max: 10%
[2]
  %max: 97%

## CO[C@]12C=C[C@@]3(C[C@]1(C)[C@@H](O)c1ccc(C)cc1)[C@H]1Cc4ccc(O)c5c4[C@@]3(CCN1CC1CC1)[C@H]2O5
[3]
  %max: 49%
[1]
  %max: 4%
[2]
  %max: 8%

## CO[C@]12CC[C@@]3(C[C@]1(C)[C@H](O)c1cccc(F)c1)[C@H]1Cc4ccc(O)c5c4[C@@]3(CCN1CC1CC1)[C@H]2O5
[3]
  %max: 2%
[1]
  %max: 31%
[2]
  %max: 15%

## CO[C@]12C=C[C@@]3(C[C@]1(C)[C@H](O)c1ccc(F)cc1)[C@H]1Cc4ccc(O)c5c4[C@@]3(CCN1CC1CC1)[C@H]2O5
[1]
  %max: 51%
[2]
  %max: 9%

## CO[C@]12C=C[C@@]3(C[C@]1(C)[C@H](O)c1ccc(C)cc1)[C@H]1Cc4ccc(O)c5c4[C@@]3(CCN1CC1CC1)[C@H]2O5
[3]
  %max: 35%
[1]
  %max: 14%
[2]
  %max: -6%

## CO[C@]12C=C[C@@]3(C[C@]1(C)[C@H](O)c1ccccc1)[C@H]1Cc4ccc(O)c5c4[C@@]3(CCN1CC1CC1)[C@H]2O5
[3]
  %max: 4%
[1]
  %max: 56%
[5]
  %max: 7%
[2]
  %max: 3%

## CO[C@]12CC[C@@]3(C[C@]1(C)[C@H](O)c1cccc(Cl)c1)[C@H]1Cc4ccc(O)c5c4[C@@]3(CCN1CC1CC1)[C@H]2O5
[3]
  %max: 7%
[1]
  %max: 42%
[2]
  %max: 7%

## CO[C@]12C=C[C@@]3(C[C@]1(C)[C@H](O)c1cccc(C)c1)[C@H]1Cc4ccc(O)c5c4[C@@]3(CCN1CC1CC1)[C@H]2O5
[1]
  %max: 54%
[5]
  %max: 15%
[2]
  %max: 6%

## CO[C@]12CC[C@@]3(C[C@]1(C)[C@H](O)c1ccc(Cl)s1)[C@H]1Cc4ccc(O)c5c4[C@@]3(CCN1CC1CC1)[C@H]2O5
[3]
  %max: 61%
[1]
  %max: 16%
[2]
  %max: 10%

## CO[C@]12CC[C@@]3(C[C@]1(C)[C@H](O)c1ccoc1)[C@H]1Cc4ccc(O)c5c4[C@@]3(CCN1CC1CC1)[C@H]2O5
[3]
  %max: 1%
[1]
  %max: 29%
[2]
  %max: 2%

## CO[C@]12CC[C@@]3(C[C@]1(C)[C@H](O)c1sccc1C)[C@H]1Cc4ccc(O)c5c4[C@@]3(CCN1CC1CC1)[C@H]2O5
[3]
  %max: 31%
[1]
  %max: 15%
[2]
  %max: 26%

## CO[C@]12CC[C@@]3(C[C@]1(C)[C@H](O)c1cccc(C)c1)[C@H]1Cc4ccc(O)c5c4[C@@]3(CCN1CC1CC1)[C@H]2O5
[4]
  Ke: 0.12 nM
[3]
  %max: 7%
[1]
  %max: 61%

## CO[C@]12C=C[C@@]3(C[C@]1(C)[C@@H](O)c1ccccc1)[C@H]1Cc4ccc(O)c5c4[C@@]3(CCN1CC1CC1)[C@H]2O5
[1]
  %max: 5%
[2]
  %max: 62%

## CO[C@]12CC[C@@]3(C[C@]1(C)[C@H](O)c1ccccc1)[C@H]1Cc4ccc(O)c5c4[C@@]3(CCN1CC1CC1)[C@H]2O5
[4]
  Ke: 0.09 nM
[1]
  %max: 56%
[5]
  %max: 0%
[2]
  %max: -2%

## CO[C@]12CC[C@@]3(C[C@@H]1[C@](C)(O)c1ccccc1)[C@H]1Cc4ccc(O)c5c4[C@@]3(CCN1CC1CC1)[C@H]2O5
[3]
  %max: 6%
[2]
  %max: 19%

## CO[C@]12CC[C@@]3(C[C@@H]1[C@](C)(O)c1cccc(Cl)c1)[C@H]1Cc4ccc(O)c5c4[C@@]3(CCN1CC1CC1)[C@H]2O5
[2]
  %max: 26%

## CO[C@]12CC[C@@]3(C[C@]1(C)[C@H](O)c1ccc(F)cc1)[C@H]1Cc4ccc(O)c5c4[C@@]3(CCN1CC1CC1)[C@H]2O5
[4]
  Ke: 0.1 nM
[5]
  %max: 6%

## CO[C@]12C=C[C@@]3(C[C@]1(C)[C@H](O)c1ccccc1C)[C@H]1Cc4ccc(O)c5c4[C@@]3(CCN1CC1CC1)[C@H]2O5
[3]
  %max: 12%
[1]
  %max: 17%
[2]
  %max: -4%

## CO[C@]12C=C[C@@]3(C[C@]1(C)[C@@H](O)c1ccccc1C)[C@H]1Cc4ccc(O)c5c4[C@@]3(CCN1CC1CC1)[C@H]2O5
[3]
  %max: 48%
[1]
  %max: 12%
[2]
  %max: 72%

## CO[C@]12CC[C@@]3(C[C@]1(C)[C@H](O)c1ccccc1C)[C@H]1Cc4ccc(O)c5c4[C@@]3(CCN1CC1CC1)[C@H]2O5
[4]
  Ke: 0.13 nM
[1]
  %max: 15%
[2]
  %max: -4%

## CCCSc1ccc([C@@H](O)[C@@]2(C)C[C@@]34C=C[C@]2(OC)[C@@H]2Oc5c(O)ccc6c5[C@@]23CCN(CC2CC2)[C@@H]4C6)cc1
[1]
  %max: 20%
[2]
  %max: 4%

## COc1ccc([C@@H](O)[C@@]2(C)C[C@@]34CC[C@]2(OC)[C@@H]2Oc5c(O)ccc6c5[C@@]23CCN(CC2CC2)[C@@H]4C6)cc1
[3]
  %max: 15%
[1]
  %max: 3%
[2]
  %max: 2%
